Key:
[1] = biological target: T1, RXRγ (Mus musculus, UniProt P28705); test: co-transfection (cis-trans) assay in CV-1 cells, RXRγ; settings: CV-1, read-out: Efficacy RXRγ
T1 sequence (P28705 1-463): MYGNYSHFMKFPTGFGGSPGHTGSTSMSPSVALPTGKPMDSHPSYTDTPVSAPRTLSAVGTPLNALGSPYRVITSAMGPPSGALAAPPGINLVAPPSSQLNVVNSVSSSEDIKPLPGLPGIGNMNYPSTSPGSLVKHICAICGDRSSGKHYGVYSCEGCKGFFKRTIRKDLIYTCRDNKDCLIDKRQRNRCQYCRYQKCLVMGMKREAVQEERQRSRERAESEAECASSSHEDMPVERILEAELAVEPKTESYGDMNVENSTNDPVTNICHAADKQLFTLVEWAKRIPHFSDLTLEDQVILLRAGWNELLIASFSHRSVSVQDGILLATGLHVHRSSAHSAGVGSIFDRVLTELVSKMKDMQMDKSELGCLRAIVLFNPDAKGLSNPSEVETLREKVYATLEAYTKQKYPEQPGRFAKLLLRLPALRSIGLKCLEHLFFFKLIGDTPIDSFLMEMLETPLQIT

Protein sequences, listed by entry. Tags and fused reporters are not part of them. Residues count along the entry.
UniProt P10276, whole entry: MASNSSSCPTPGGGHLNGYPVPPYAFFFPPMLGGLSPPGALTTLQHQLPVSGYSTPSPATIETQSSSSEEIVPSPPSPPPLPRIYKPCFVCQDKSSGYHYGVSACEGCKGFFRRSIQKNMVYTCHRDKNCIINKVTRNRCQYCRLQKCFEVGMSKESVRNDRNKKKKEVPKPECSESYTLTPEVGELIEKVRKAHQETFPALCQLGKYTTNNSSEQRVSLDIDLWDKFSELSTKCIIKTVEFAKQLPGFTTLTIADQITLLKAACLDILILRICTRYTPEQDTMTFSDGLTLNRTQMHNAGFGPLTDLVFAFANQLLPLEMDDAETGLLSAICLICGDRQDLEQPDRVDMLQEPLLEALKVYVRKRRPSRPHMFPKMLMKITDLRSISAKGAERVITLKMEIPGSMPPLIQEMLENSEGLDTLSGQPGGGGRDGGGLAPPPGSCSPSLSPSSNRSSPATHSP
UniProt P10826, 1-448 isoform P10826-2: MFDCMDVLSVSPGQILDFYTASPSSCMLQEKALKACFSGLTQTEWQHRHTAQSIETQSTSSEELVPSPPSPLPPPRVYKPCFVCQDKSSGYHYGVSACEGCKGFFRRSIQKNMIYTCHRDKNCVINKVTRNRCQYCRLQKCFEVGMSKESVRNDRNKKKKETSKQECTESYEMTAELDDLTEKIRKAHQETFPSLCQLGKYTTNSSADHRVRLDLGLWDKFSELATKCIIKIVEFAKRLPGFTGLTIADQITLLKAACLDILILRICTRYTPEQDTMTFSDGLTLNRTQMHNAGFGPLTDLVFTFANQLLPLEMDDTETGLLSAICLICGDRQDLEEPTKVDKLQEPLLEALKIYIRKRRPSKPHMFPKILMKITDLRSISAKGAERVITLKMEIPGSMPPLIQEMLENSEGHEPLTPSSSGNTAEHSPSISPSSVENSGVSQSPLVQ
UniProt P13631, whole entry: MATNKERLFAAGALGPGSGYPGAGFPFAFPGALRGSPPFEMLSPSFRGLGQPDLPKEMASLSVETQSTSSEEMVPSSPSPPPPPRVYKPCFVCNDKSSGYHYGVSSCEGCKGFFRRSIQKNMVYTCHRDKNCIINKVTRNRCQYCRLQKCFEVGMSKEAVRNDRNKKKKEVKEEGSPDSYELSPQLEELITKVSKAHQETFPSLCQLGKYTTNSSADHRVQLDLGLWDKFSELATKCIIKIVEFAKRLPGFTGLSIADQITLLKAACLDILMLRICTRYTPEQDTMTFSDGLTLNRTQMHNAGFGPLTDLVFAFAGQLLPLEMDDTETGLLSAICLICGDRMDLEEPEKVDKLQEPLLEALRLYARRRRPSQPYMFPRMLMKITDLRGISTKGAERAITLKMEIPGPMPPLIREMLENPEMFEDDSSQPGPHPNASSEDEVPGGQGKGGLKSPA

[2] = biological target: RARα (Homo sapiens, UniProt P10276); test: co-transfection (cis-trans) assay in CV-1 cells, RARα; settings: 10 µM
[3] = biological target: RARβ (Homo sapiens, UniProt P10826); test: co-transfection (cis-trans) assay in CV-1 cells, RARβ; settings: maximal response relative to all-trans-retinoic acid at 10^-5 M; 10 µM
[4] = biological target: RARγ (Homo sapiens, UniProt P13631); test: co-transfection (cis-trans) assay in CV-1 cells, RARγ; settings: 10 µM

CC1=C(/C=C/C(C)=C\C=C\C(C)=C\C(=O)O)C(C)(C)CCC1 [reference compound]
Emax at 10 µM [1]: 140% | Efficacy RARα [2]: 100% | Efficacy RARβ [3]: 82% | Efficacy RARγ [4]: 120%

From patent US6043279A, “Compounds having selective activity for retinoid X receptors, and means for modulation of processes mediated by retinoid X receptors” (priority 1997, dated 2000)
